Structures are written as SMILES.

By UniProt entry, the sequences of proteins in these tests, tags left out.
UniProt P04049, whole entry Y340E/Y341E: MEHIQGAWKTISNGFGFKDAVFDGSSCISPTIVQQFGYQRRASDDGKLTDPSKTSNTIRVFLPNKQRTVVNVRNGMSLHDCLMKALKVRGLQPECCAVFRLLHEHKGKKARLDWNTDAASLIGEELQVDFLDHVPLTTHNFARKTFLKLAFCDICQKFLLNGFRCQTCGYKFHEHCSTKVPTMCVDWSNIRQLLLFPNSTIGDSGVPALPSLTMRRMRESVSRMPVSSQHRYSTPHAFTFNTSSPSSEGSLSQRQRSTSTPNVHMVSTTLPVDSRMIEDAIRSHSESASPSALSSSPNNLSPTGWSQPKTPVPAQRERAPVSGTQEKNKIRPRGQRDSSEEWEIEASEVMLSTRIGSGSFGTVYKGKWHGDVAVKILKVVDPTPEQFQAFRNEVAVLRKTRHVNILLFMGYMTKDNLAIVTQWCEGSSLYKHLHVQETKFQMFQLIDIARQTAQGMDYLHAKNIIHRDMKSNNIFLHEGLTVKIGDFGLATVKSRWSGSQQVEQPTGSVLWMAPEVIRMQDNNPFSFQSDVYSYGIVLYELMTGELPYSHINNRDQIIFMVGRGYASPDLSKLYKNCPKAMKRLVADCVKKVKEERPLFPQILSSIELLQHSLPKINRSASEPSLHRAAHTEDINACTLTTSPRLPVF

In the first test the target is C-Raf FL (full-length C-Raf protein, Y340E and Y341E activating mutations) (Homo sapiens (Human), UniProt P04049, Y340E/Y341E). It is filed as biochemical. The settings on record: AlphaScreen, 60 min pre-incubation, 1 hour reaction; read-out: c-Raf FL IC-50.
Take `COCCOc1nnc(-c2cc(NC(=O)c3ccnc(C(C)(C)C#N)c3)ccc2C)cc1N1CCOCC1` [Example 601, 2-(2-cyanopropan-2-yl)-N-(3-(6-(2-methoxyethoxy)-5-morpholinopyridazin-3-yl)-4-methylphenyl)isonicotinamide]: the IC50 was 300 pM.

In the case of `CCNc1nc(-c2cc(C(=O)Nc3cccc(C(F)F)c3)ccc2C)cc(N2CCOCC2)n1` [Example 733, N-(3-(difluoromethyl)phenyl)-3-(2-(ethylamino)-6-morpholinopyrimidin-4-yl)-4-methylbenzamide], the IC50 stood at 300 pM.

Consider `Cc1ccc(NC(=O)c2ccnc(C(C)(C)O)c2)cc1-c1cc(N2CCOCC2)n2nccc2n1` [Example 794, 2-(2-hydroxypropan-2-yl)-N-(4-methyl-3-(7-morpholinopyrazolo[1,5-a]pyrimidin-5-yl)phenyl)isonicotinamide], for which the IC50 stood at 800 pM.

For the molecule `Cc1ccc(NC(=O)c2ccnc(C(C)C)c2)cc1-c1cc(N2CCOCC2)nc(N2CC(O)C2)n1` [Example 771, N-(3-(2-(3-hydroxyazetidin-1-yl)-6-morpholinopyrimidin-4-yl)-4-methylphenyl)-2-isopropylisonicotinamide], the IC50 came out at 800 pM.

Consider `Cc1ncc(NC(=O)c2ccnc(C(C)(C)O)c2)cc1-c1cc(N2CCOCC2)n(C)c(=O)c1` [Example 501, N-(1′,2-dimethyl-6′-morpholino-2′-oxo-1′,2′-dihydro-[3,4′-bipyridin]-5-yl)-2-(2-hydroxypropan-2-yl)isonicotinamide], for which the IC50 is 8300 pM.

Turning to `Cc1ccc(NC(=O)c2ccnc(C(C)(C)C)c2)cc1-c1cc(N2CCOCC2)n(C)c(=O)c1` [Example 472, 2-(tert-butyl)-N-(4-methyl-3-(1-methyl-6-morpholino-2-oxo-1,2-dihydropyridin-4-yl)phenyl)isonicotinamide], the IC50 is 500 pM.

With `Cc1ccc(NC(=O)c2cccc(CC#N)c2)cc1-c1cc(N2CCOCC2)c(=O)n(C)n1` [Example 652, 3-(cyanomethyl)-N-(4-methyl-3-(1-methyl-5-morpholino-6-oxo-1,6-dihydropyridazin-3-yl)phenyl)benzamide], the IC50 is 500 pM.

`Cc1ncc(NC(=O)c2cccc(C(F)(F)F)c2)cc1-c1ccc(C#N)c(N2CCOCC2)c1` [Example 684]: the IC50 was determined as 300 pM.

Take `Cc1ncc(NC(=O)c2ccnc(C(C)(C)O)c2)cc1-c1cc(N2CCOCC2)n2nccc2n1` [Example 797, 2-(2-hydroxypropan-2-yl)-N-(6-methyl-5-(7-morpholinopyrazolo[1,5-a]pyrimidin-5-yl)pyridin-3-yl)isonicotinamide]: the IC50 worked out at 7900 pM.

As to `Cc1ccc(NC(=O)c2ccnc(C(C)(C)F)c2)cc1-c1cc(N2CCOCC2)c(OC2CCOCC2)nn1` [Example 578, 2-(2-fluoropropan-2-yl)-N-(4-methyl-3-(5-morpholino-6-((tetrahydro-2H-pyran-4-yl)oxy)pyridazin-3-yl)phenyl)isonicotinamide], the IC50 came out at 200 pM.

The same test, now with this note: AlphaScreen, 60 min pre-incubation, reaction 1 hour at room temperature; read-out: c-Raf FL IC-50.
Take `Cc1ccc(NC(=O)c2cnncc2C(F)F)cc1-c1cc(N2CCOCC2)nc(N2CC(O)C2)c1` [Example 1075, 5-(difluoromethyl)-N-(3-(2-(3-hydroxyazetidin-1-yl)-6-morpholinopyridin-4-yl)-4-methylphenyl)pyridazine-4-carboxamide]: the IC50 was 120000 pM.

`Cc1ncc(NC(=O)c2cccc(C(F)F)c2)cc1-c1cc(N2CCOCC2)nc(N2CCOCC2)c1` [Example 1121, 3-(difluoromethyl)-N-(2-methyl-2′,6′-dimorpholino-[3,4′-bipyridin]-5-yl)benzamide]: the IC50 was 260 pM.

As for `Cc1ccc(NC(=O)c2ccnc(C(C)(C)C#N)c2)cc1-c1nc(N2CCOCC2)c2sccc2n1` [Example 862, 2-(2-cyanopropan-2-yl)-N-(4-methyl-3-(4-morpholinothieno[3,2-d]pyrimidin-2-yl)phenyl)isonicotinamide], the IC50 came to 300 pM.

Turning to `Cc1ncc(NC(=O)c2ccnc(C(F)F)c2)cc1-c1cc(NCCO)nc(N2CCOCC2)c1` [Example 1039, 2-(difluoromethyl)-N-(2′-((2-hydroxyethyl)amino)-2-methyl-6′-morpholino-[3,4′-bipyridin]-5-yl)isonicotinamide], the IC50 was 960 pM.

With `Cc1ccc(NC(=O)[C@@H]2CCN[C@H](C(F)(F)F)C2)cc1-c1cc(C2COCCO2)nc(N2CCOCC2)c1` (stereo in doubt) [Example 1132, N-(3-(2-(1,4-dioxan-2-yl)-6-morpholinopyridin-4-yl)-4-methylphenyl)-2-(trifluoromethyl)piperidine-4-carboxamide], the IC50 turned out to be 61300 pM.

With `Cc1ccc(NC(=O)c2cnnc(C(C)(C)C#N)c2)cc1-c1cc(NCCO)nc(N2CCOCC2)c1` [Example 1049, 6-(2-cyanopropan-2-yl)-N-(3-(2-((2-hydroxyethyl)amino)-6-morpholinopyridin-4-yl)-4-methylphenyl)pyridazine-4-carboxamide], the IC50 was found to be 1140 pM.

With `COc1nnc(-c2cc(C(=O)Nc3ccnc(C(F)(F)F)c3)ccc2C)cc1N1CCOCC1` [Example 1018], the IC50 was found to be 570 pM.

For the molecule `Cc1ncc(NC(=O)c2ccnc(C(C)(C)O)c2)cc1-c1cc(NCCO)nc(N2CCOCC2)c1` [Example 1046, N-(2′-((2-hydroxyethyl)amino)-2-methyl-6′-morpholino-[3,4′-bipyridin]-5-yl)-2-(2-hydroxypropan-2-yl)isonicotinamide], the IC50 was 10600 pM.

For `Cc1ccc(NC(=O)c2cc(C(F)(F)F)ccn2)cc1-c1cc(N2CCOCC2)c(S(C)(=O)=O)nn1` [Example 933, N-(4-methyl-3-(6-(methylsulfonyl)-5-morpholinopyridazin-3-yl)phenyl)-4-(trifluoromethyl)picolinamide], the IC50 was found to be 220 pM.

In the case of `Cc1ccc(NC(=O)c2cc(C3CC3)on2)cc1-c1cc(N2CCOCC2)nc(N2CC(O)C2)c1` [Example 1095, 5-cyclopropyl-N-(3-(2-(3-hydroxyazetidin-1-yl)-6-morpholinopyridin-4-yl)-4-methylphenyl)isoxazole-3-carboxamide], the IC50 stood at 270 pM.

For `Cc1ncc(NC(=O)c2cncc(C(F)(F)F)c2)cc1-c1cnc(OCC(F)F)c(N2CCOCC2)c1` [Example 935, N-(6′-(2,2-difluoroethoxy)-2-methyl-5′-morpholino-[3,3′-bipyridin]-5-yl)-5-(trifluoromethyl)nicotinamide], the IC50 came to 580 pM.

Still in this test, the particulars now being: Table 2; AlphaScreen, 1 hour reaction; read-out: c-Raf FL IC-50.
`Cc1ncc(NC(=O)c2cccc(C(F)(F)F)c2)cc1-c1cnc(O[C@H]2CCOC2)c(N2CCOCC2)c1` [Example 310, (S)—N-(2-methyl-5′-morpholino-6′-((tetrahydrofuran-3-yl)oxy)-[3,3′-bipyridin]-5-yl)-3-(trifluoromethyl)benzamide]: the IC50 is 700 pM.

As to `Cc1cc(C(=O)Nc2cnc(C)c(-c3cc(N4CCOCC4)c(=O)n(C)c3)c2)n(C)n1` [Example 376, N-(1′,2-dimethyl-5′-morpholino-6′-oxo-1′,6′-dihydro-[3,3′-bipyridin]-5-yl)-1,3-dimethyl-1H-pyrazole-5-carboxamide], the IC50 was found to be 700000 pM.

As to `CCOc1ncc(-c2cc(NC(=O)c3cc(C(F)(F)F)c(=O)n(CC)c3)ccc2C)cc1N1CCOCC1` [Example 234, N-(3-(6-ethoxy-5-morpholinopyridin-3-yl)-4-methylphenyl)-1-ethyl-6-oxo-5-(trifluoromethyl)-1,6-dihydropyridine-3-carboxamide], the IC50 came out at 500 pM.

On to `Cc1ncc(NC(=O)c2ccnc(C(C)(C)C#N)c2)cc1-c1cnc(Cl)c(N2CCOCC2)c1` [Example 289, N-(6′-chloro-2-methyl-5′-morpholino-[3,3-bipyridin]-5-yl)-2-(2-cyanopropan-2-yl)isonicotinamide], for which the IC50 is 3800 pM.

For the molecule `Cc1ccc(NC(=O)c2cc(C(F)(F)F)nn2C)cc1-c1cc(N2CCOCC2)c(=O)n(C)c1` [Example 369, 1-methyl-N-(4-methyl-3-(1-methyl-5-morpholino-6-oxo-1,6-dihydropyridin-3-yl)phenyl)-3-(trifluoromethyl)-1H-pyrazole-5-carboxamide], the IC50 turned out to be 12700 pM.

For `Cc1ncc(NC(=O)c2cnnc(C(F)(F)F)c2)cc1-c1cnc(Cl)c(N2CCOCC2)c1` [Example 292, N-(6′-chloro-2-methyl-5′-morpholino-[3,3′-bipyridin]-5-yl)-6-(trifluoromethyl)pyridazine-4-carboxamide], the IC50 was found to be 1400 pM.

As to `Cc1ccc(C(=O)Nc2cccc(C(F)(F)F)c2)cc1-c1cc(N2CCOCC2)ccn1` [Example 64, 4-methyl-3-(4-morpholinopyridin-2-yl)-N-(3-(trifluoromethyl)phenyl)benzamide], the IC50 turned out to be 800 pM.

On to `Cc1ccc(NC(=O)c2cc(C(C)(C)C)on2)cc1-c1cc(N2CCOCC2)nc(N2CCOCC2)n1` [Example 25, 5-(tert-butyl)-N-(3-(2,6-dimorpholinopyrimidin-4-yl)-4-methylphenyl)isoxazole-3-carboxamide], for which the IC50 amounted to 400 pM.

For the molecule `CCc1cccc(NC(=O)c2ccc(C)c(-c3cc(N4CCOCC4)c(=O)n(C)c3)c2)c1` [Example 435, N-(3-ethylphenyl)-4-methyl-3-(1-methyl-5-morpholino-6-oxo-1,6-dihydropyridin-3-yl)benzamide], the IC50 worked out at 700 pM.

`CCOc1ncc(-c2cc(NC(=O)c3ccnc(S(C)(=O)=O)c3)cnc2C)cc1N1CCOCC1` [Example 243, N-(6′-ethoxy-2-methyl-5′-morpholino-[3,3′-bipyridin]-5-yl)-2-(methylsulfonyl)isonicotinamide]: the IC50 turned out to be 2700 pM.

The test is the same for the next values; noted with them: read-out: c-Raf FL IC-50.
`Cc1ccc(NC(=O)c2cccc(C(F)(F)F)c2)cc1-c1cc(N2C3CCC2COC3)nc(N2CCOCC2)n1` [Example 49, N-(3-(6-(3-oxa-8-azabicyclo[3.2.1]octan-8-yl)-2-morpholinopyrimidin-4-yl)-4-methylphenyl)-3-(trifluoromethyl)benzamide]: the IC50 amounted to 400 pM.

(Values after US9694016B2 (Novartis AG, priority 2013, dated 2017).)
